Sequences of proteins named here, by UniProt entry; tags and fusion partners are left off.
UniProt Q06124, whole entry: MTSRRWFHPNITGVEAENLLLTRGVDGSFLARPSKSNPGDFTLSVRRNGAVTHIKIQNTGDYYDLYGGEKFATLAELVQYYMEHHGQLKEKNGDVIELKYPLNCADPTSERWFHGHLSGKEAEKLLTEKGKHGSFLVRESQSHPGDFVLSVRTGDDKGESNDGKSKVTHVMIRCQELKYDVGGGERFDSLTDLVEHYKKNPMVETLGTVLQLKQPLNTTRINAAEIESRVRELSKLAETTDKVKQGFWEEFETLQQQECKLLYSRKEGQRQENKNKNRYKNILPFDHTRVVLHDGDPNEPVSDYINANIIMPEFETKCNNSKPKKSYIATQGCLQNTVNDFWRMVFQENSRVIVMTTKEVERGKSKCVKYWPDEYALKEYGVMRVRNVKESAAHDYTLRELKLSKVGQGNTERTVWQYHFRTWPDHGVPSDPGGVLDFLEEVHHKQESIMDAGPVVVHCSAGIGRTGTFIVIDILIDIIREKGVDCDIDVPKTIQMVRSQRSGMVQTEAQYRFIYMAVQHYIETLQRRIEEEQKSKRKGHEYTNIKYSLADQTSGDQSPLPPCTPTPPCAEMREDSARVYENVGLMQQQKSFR

In patent US20240270753A1, “HETEROCYCLIC COMPOUND FOR INHIBITING SHP2 ACTIVITY, PREPARATION METHOD THEREFOR AND USE THEREOF” (SHANGHAI INSTITUTE OF MATERIA MEDICA, CHINESE ACADEMY OF …, priority 2021, published 2024):

How the values were obtained:
MV4-11 cells = assay: MV4-11 cell proliferation inhibition assay (MTS); format: cell-based; conditions: read-out: IC50, MV4-11 cell proliferation inhibition, MTS read on the third day
[1] = system: p-ERK 1/2 (Thr202/Tyr204) in MIAPaca-2 cells; assay: Cell protein kinase (p-ERK) phosphorylation inhibition, AlphaLISA; conditions: read-out: IC50, p-ERK phosphorylation inhibition, treated for 2 hours
[2] = target: full-length SHP2 (Met1-Arg 593) (Homo sapiens (Human), UniProt Q06124); assay: Phosphatase activity inhibition assay (DiFMUP substrate); format: biochemical; conditions: read-out: IC50, SHP2 activity inhibition; peptide-activated full-length SHP2 0.5 nM, DiFMUP 25 μM

Row | Compound | IC50 (MV4-11 cells) | IC50 [1] | IC50 [2]
1 | C[C@@H]1OCC2(CCN(c3cnc(Sc4ccnc(C#Cc5ccn(C)n5)c4Cl)c(N)n3)CC2)[C@@H]1N | 2.3 nM | – | –
2 | C[C@@H]1OCC2(CCN(c3cnc(Sc4ccnc(C#Cc5ccccn5)c4Cl)c(N)n3)CC2)[C@@H]1N | 3.1 nM | 1.7 nM | –
3 | C[C@@H]1OCC2(CCN(c3cnc(Sc4ccnc(C#Cc5cn(C)cn5)c4Cl)c(N)n3)CC2)[C@@H]1N | < 20 nM | – | –
4 | C[C@@H]1OCC2(CCN(c3cnc(Sc4ccnc(C#CC5CC5)c4Cl)c(N)n3)CC2)[C@@H]1N | 14.8 nM | – | –
5 | C[C@@H]1OCC2(CCN(c3cnc(Sc4cccc(C#Cc5cccnc5)c4Cl)c(N)n3)CC2)[C@@H]1N | 27 nM | – | 7.2 nM
6 | C[C@@H]1OCC2(CCN(c3cnc(Sc4ccnc(C#Cc5cnn(C6CC6)c5)c4Cl)c(N)n3)CC2)[C@@H]1N | 4.1 nM | – | –
7 | CCn1cc(C#Cc2nccc(Sc3ncc(N4CCC5(CC4)CO[C@@H](C)[C@H]5N)nc3N)c2Cl)cn1 | 3.1 nM | – | –
8 | C[C@@H]1OCC2(CCN(c3cnc(Sc4ccnc(C#Cc5cnn(C)c5)c4Cl)c(N)n3)CC2)[C@@H]1N | 8.3 nM | 3.2 nM | –
9 | CC(=O)N1CCC(C#Cc2nccc(Sc3ncc(N4CCC5(CC4)CO[C@@H](C)[C@H]5N)nc3N)c2Cl)CC1 | 22.8 nM | – | –
10 | Cc1noc(C)c1C#Cc1nccc(Sc2ncc(N3CCC4(CC3)CO[C@@H](C)[C@H]4N)nc2N)c1Cl | 80.1 nM | – | –
11 | CC(C)n1cc(C#Cc2nccc(Sc3ncc(N4CCC5(CC4)CO[C@@H](C)[C@H]5N)nc3N)c2Cl)cn1 | 7.4 nM | – | –
12 | C[C@@H]1OCC2(CCN(c3cnc(Sc4ccnc(C#CC5CCNCC5)c4Cl)c(N)n3)CC2)[C@@H]1N | 94.9 nM | – | –
13 | C[C@@H]1OCC2(CCN(c3cnc(Sc4ccnc(C#Cc5cncn5C)c4Cl)c(N)n3)CC2)[C@@H]1N | 21.8 nM | – | –
14 | C[C@@H]1OCC2(CCN(c3cnc(Sc4cccc(C#Cc5cnn(C)c5)c4Cl)c(N)n3)CC2)[C@@H]1N | 10.3 nM | – | 9.8 nM
15 | C[C@@H]1OCC2(CCN(c3cnc(Sc4ccnc(C#Cc5cnccn5)c4Cl)c(N)n3)CC2)[C@@H]1N | < 20 nM | – | –
16 | C[C@@H]1OCC2(CCN(c3cnc(Sc4ccnc(C#Cc5ccncc5)c4Cl)c(N)n3)CC2)[C@@H]1N | 20 nM | – | 9.8 nM
17 | C[C@@H]1OCC2(CCN(c3cnc(Sc4ccnc(C#Cc5cccnc5)c4Cl)c(N)n3)CC2)[C@@H]1N | 14 nM | – | –
18 | C[C@@H]1OCC2(CCN(c3cnc(Sc4ccnc(C#Cc5cnc6cccnn56)c4Cl)c(N)n3)CC2)[C@@H]1N | 23.5 nM | – | –
19 | C[C@@H]1OCC2(CCN(c3cnc(Sc4ccnc(C#CC5CCOCC5)c4Cl)c(N)n3)CC2)[C@@H]1N | 28.6 nM | – | 20.7 nM
